Reference: patent US9340523B2, “Certain dipeptidyl peptidase inhibitors” (FOCHON PHARMA, INC., priority 2009, dated 2016)

Amino acid sequences for entries named in this document (tags omitted). Residues count along the entry.
UniProt P28843, 37-760 limits assumed: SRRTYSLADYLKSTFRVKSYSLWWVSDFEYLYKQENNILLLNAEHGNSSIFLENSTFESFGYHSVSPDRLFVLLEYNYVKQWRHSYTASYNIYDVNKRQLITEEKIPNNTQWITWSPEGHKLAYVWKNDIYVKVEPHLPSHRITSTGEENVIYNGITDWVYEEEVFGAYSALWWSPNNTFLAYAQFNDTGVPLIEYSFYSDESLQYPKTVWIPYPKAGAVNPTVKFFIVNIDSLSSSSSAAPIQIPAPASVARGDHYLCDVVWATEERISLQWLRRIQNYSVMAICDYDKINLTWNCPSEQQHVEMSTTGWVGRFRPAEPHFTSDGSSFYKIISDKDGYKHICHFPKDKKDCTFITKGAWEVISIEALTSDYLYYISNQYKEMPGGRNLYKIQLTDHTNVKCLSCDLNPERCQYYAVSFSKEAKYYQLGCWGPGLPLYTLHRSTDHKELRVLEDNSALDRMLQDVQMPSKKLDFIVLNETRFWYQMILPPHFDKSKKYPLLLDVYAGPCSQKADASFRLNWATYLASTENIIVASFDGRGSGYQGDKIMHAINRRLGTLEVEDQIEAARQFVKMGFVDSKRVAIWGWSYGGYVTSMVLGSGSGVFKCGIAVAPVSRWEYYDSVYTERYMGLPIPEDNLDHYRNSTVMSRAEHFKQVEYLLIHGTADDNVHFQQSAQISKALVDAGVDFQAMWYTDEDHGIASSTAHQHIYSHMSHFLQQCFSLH

Target: plasma DPP-4 activity (Mus musculus, UniProt P28843)
Experiment: in vivo
Settings: po

Cn1c(=O)cc(N2CCC[C@@H](N)C2)n(Cc2ccccc2C#N)c1=O [Alogliptin] showed an activity at 3 mg/kg (read-out: DPP-4 Relative activity %, 1 hr after dosing) of 18.8 ± 1%, an activity at 3 mg/kg (read-out: DPP-4 Relative activity %, 2 hrs after dosing) of 19.9 ± 1.3% and an activity at 3 mg/kg (read-out: DPP-4 Relative activity %, 3 hrs after dosing) of 22.3 ± 1.5%. For the same compound, the activity at 3 mg/kg (read-out: DPP-4 Relative activity %, 5 hrs after dosing) was 25.6 ± 1.6%.

Read-outs that look alike come from different tables or passages of the source.
